Values of other authors, collected in patent US7354941B2, “Nicotinamide benzofused-heterocyclyl derivatives useful as selective inhibitors of PDE4 isozymes” (Pfizer Products Inc., priority 2000, dated 2008).
pIC50: −log10 of the molar value.

Tests used:
PDE4 = settings: cited from earlier work
[1] = tested on: antigen-induced bronchoconstriction; settings: guinea pig, in vivo; cited from earlier work

## COc1ccc(C(=O)Nc2c(Cl)cncc2Cl)c2cccnc12 [Example D4418]
PDE4
  pIC50: 6.70
[1]
  inhibition of antigen-induced early and late phase bronchoconstriction and BAL eosinophilia: active
